From ChEMBL document CHEMBL1800055, “Orally active MMP-1 sparing α-tetrahydropyranyl and α-piperidinyl sulfone matrix metalloproteinase (MMP) inhibitors with efficacy in cancer, arthritis, and cardiovascular disease” (J Med Chem, 2010)

Target: Collagenase 3 (Homo sapiens, UniProt P45452)

| SMILES | IC50 |
| --- | --- |
| O=C(NO)C1(S(=O)(=O)c2ccc(Oc3ccncc3)cc2)CCOCC1 | 1 nM |
| O=C(NO)C1(S(=O)(=O)c2ccc(Oc3ccc(OC(F)(F)F)cc3)cc2)CCN(C2CC2)CC1 | 0.1 nM |
